Data as given in patent US20180055857A1, “TREATMENT OF ACNE VULGARIS WITH SEQUENTIAL TOPICAL FORMULATIONS COMPRISING ANTIMICROBIAL ORGANIC ACID ANIONS IN ALKALINE PHASE” (KANTIAN SCIENCES CORPORATION, priority 2015, published 2018).
Where two headings read alike, the source gives them in different places.

Substance: Chlorite
- % ClO2^− (pH 2.3): 68.0%
- % HClO2 (pH 2.3): 35.0%
- % ClO2^− (pH 2.6): 81.9%
- % HClO2 (pH 2.6): 18.1%
- % ClO2^− (pH 2.8): 87.7%
- % HClO2 (pH 2.8): 12.3%
- % ClO2^− (pH 3.0): 91.5%
- % HClO2 (pH 3.0): 8.5%
- % ClO2^− (pH 3.5): 97.6%
- % HClO2 (pH 3.5): 2.4%
